Measurements as given in paper PMC10272835, “Exploration of T cell immune responses by expression of a dominant-negative SHP1 and SHP2” (Frontiers in Immunology, 2023).

Tested on: ERK phosphorylation
Test: ERK phosphorylation after IL2 (Western blot)
Type: cell-based
Conditions: IL2 stimulation 24 hours, 3 donors
Protocol: Cells were stimulated as indicated then 0.5x10^6 cells were harvested and pelleted at 400xg for 2 minutes. The pellets were washed with ice-cold PBS, centrifuged as before and lysed in 50μl of 1x RIPA buffer (Millipore) supplemented with 1x protease and phosphatase inhibitor (Abcam). The cells were incubated on ice for 15 minutes, vortexed and incubated for further 15 minutes. The lysate was clarified by centrifuging the cells at 13000xg for 10 minutes at 4°C, protein concentration was determined using the BCA Protein assay Kit (Pierce) and stored at -80°C until use. Prior to gel electrophoresis lysates were mixed with NuPAGE™ LDS Sample Buffer (4X) (Invitrogen™) and heated at 95°C for 10 minutes. Samples (4µg) were resolved on a premade 4–20% Mini-PROTEAN® TGX™ Precast Gel (Abcam).
Post-separation, SDS-PAGE gel was transferred to Trans-Blot Turbo Midi 0.2 µm PVDF membrane (Abcam) using Trans-Blot® Turbo™ Midi by semi-dry transfer (Abcam). Following transfer, membranes were blocked with 1x TBST (Sigma) supplemented with 5% BSA for 24 hours at 4°C. […]
stimulated with IL2 for 24 hours and phosphorylation of ERK assessed by Western blot. […]
representative donor is shown. B) The ratio of phosphorylated ERK: total ERK was assessed for […]
stimulation, as indicated, was assessed for 6 independent donors. […]

## IL2: cytokine used to stimulate T cells
  ERK phosphorylation: promoted ERK phosphorylation
